# Measurements reported in PubChem BioAssay AID588852 (The Scripps Research Institute Molecular Screening Center, 2011).
# By UniProt entry, the sequences of proteins in these tests, tags left out.
# UniProt P11229, whole entry: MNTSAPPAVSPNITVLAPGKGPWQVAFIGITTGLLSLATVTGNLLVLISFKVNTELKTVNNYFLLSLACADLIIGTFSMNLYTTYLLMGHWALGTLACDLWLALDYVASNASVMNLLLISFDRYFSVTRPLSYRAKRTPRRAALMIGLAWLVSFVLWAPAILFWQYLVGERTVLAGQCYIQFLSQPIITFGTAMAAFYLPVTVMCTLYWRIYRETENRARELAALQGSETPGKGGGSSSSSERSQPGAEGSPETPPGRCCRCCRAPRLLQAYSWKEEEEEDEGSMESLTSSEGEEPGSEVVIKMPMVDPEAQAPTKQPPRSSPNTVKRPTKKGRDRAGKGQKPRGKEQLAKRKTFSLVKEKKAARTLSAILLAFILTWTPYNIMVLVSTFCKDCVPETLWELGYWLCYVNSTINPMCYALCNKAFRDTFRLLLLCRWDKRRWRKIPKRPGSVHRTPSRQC
# Only a part is listed here, and it is no random draw. Activity calls are given as the source filed them.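 The calls were made as follows: active = percent inhibition above its own plate's cutoff, namely the mean of that plate's compound wells plus 3 SD; inactive = the rest.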
# Target: Muscarinic acetylcholine receptor M1 (Homo sapiens) (UniProt P11229)
# Experiment: human M1 muscarinic receptor antagonists, primary screen, CHO-K1 cells, Fluo-8 calcium fluorescence, 1536-well (AID 588852);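 also: peak over basal fluorescence ratio during 140 s after agonist addition; 0% = ACh EC80 plus DMSO and 100% = DMSO alone without agonist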
# Details: CHO-K1 hM1, Fluo-8 calcium fluorescence, ACh EC80 antagonist; at 3 µM; stronger effect = higher value
row,Structure (SMILES),inhibition
1,O=c1[nH]c2ccccc2n1C1CCN(C(c2cccs2)c2nnnn2C2CCCCC2)CC1 (stereo not drawn),inactive: -7.61%
2,COc1ccc(C(=O)NCC2(N3CCOCC3)CCCCC2)cc1OC,inactive: -6.96%
3,O=c1[nH]c2ccccc2n1C1CCN(C(c2ccnc3ccccc23)c2nnnn2C2CCCC2)CC1 (stereo not drawn),inactive: 18.9%
4,CCCCn1nnnc1C(c1ccccc1)N1CCC(n2c(=O)[nH]c3ccccc32)CC1 (stereo not drawn),inactive: 27.9%
5,COc1cc(C(=O)NCC2(N3CCOCC3)CCCCC2)cc(OC)c1C,inactive: -8.5%
6,O=C(NCC1(N2CCOCC2)CCCCC1)c1cc(Br)ccc1Cl,inactive: -9.53%
7,O=c1[nH]c2ccccc2n1C1CCN(C(c2cccs2)c2nnnn2C2CCCC2)CC1 (stereo not drawn),inactive: -21.7%
8,CCCCn1nnnc1C(c1cccc(OC)c1OC)N1CCC(n2c(=O)[nH]c3ccccc32)CC1 (stereo not drawn),inactive: 30.6%
9,COc1cccc(C(c2nnnn2C(C)(C)C)N2CCC(n3c(=O)[nH]c4ccccc43)CC2)c1OC (stereo not drawn),inactive: -15.5%
10,CCOC(=O)N1CCC(Nc2ccc(C)cc2)CC1,inactive: -13.7%
11,N/C(=N\O)c1c(N)no[n+]1[O-],inactive: -10%
12,N#Cc1ccc(C(=O)NCC2(N3CCCCC3)CCCCC2)cc1,inactive: 0.43%
13,CC(C)(C)OC(=O)N1CCC(N(C(=O)c2ccccc2)c2ccc(Cl)cc2)CC1,inactive: -7.39%
14,CC(C)(C)n1nnnc1C(c1cccc2ccccc12)N1CCC(n2c(=O)[nH]c3ccccc32)CC1 (stereo not drawn),inactive: -28.5%
15,CN(C)C1(CNC(=O)c2cccc(C#N)c2)CCCCC1,inactive: -8.6%
16,c1ccc(CN2CCC(Nc3ccccc3)CC2)cc1,inactive: -14.8%
17,Cc1cc(N(CCCl)CCCl)ccc1C=O,inactive: -19.7%
18,CCCN1CCC(Nc2cc(OC)cc(OC)c2)CC1,inactive: -26.4%
19,O=c1[nH]c2ccccc2n1C1CCN(C(c2ccccc2)c2nnnn2C2CCCC2)CC1 (stereo not drawn),inactive: -19.3%
20,Cc1ccc(C(=O)NCC2(N3CCCCC3)CCCCC2)o1,inactive: -6.63%
21,Fc1ccccc1NC1CCN(Cc2ccccc2)CC1,inactive: -10.4%
22,Cc1ccc(NC2(C#N)CCN(Cc3ccccc3)CC2)cc1,inactive: -9.86%
23,CC(=O)N(c1ccccc1)C1CCNCC1,inactive: -16%
24,COc1cccc(C(c2nnnn2C2CCCCC2)N2CCC(n3c(=O)[nH]c4ccccc43)CC2)c1OC (stereo not drawn),inactive: 8%
25,CCC(c1nnnn1C1CCCCC1)N1CCC(n2c(=O)[nH]c3ccccc32)CC1 (stereo not drawn),inactive: -20.1%
26,O=c1[nH]c2ccccc2n1C1CCN(C(c2ccnc3ccccc23)c2nnnn2C2CCCCC2)CC1 (stereo not drawn),inactive: -17.9%

row,Structure (SMILES),inhibition
1,COc1cc(OC)cc(C(=O)NCC2(N3CCCCC3)CCCCC2)c1,inactive: -16.8%
2,O=C(NCC1(N2CCCCC2)CCCCC1)c1ccco1,inactive: -10.6%
3,Cn1c(=O)[nH]cc(N(CCCl)CCCl)c1=O,inactive: 18.8%
4,CN(C)c1ccc(C(=O)NCC2(N3CCCCC3)CCCCC2)cc1,inactive: -13.2%
5,Cc1ccccc1NC1(C#N)CCN(Cc2ccccc2)CC1,inactive: -2.3%
6,CC(C)(C)n1nnnc1C(c1ccnc2ccccc12)N1CCC(n2c(=O)[nH]c3ccccc32)CC1 (stereo not drawn),inactive: -35.1%
7,CCN1CCC(Nc2cccc(F)c2)CC1,inactive: 2.35%
8,COc1ccc(C(c2nnnn2C2CCCCC2)N2CCC(n3c(=O)[nH]c4ccccc43)CC2)cc1 (stereo not drawn),inactive: 1.76%
9,CC(C)(C)OC(=O)N1CCC(Nc2ccccc2)CC1,inactive: -2.92%
10,O=C(O)C1(Nc2ccccc2)CCN(Cc2ccccc2)CC1,inactive: -17.7%
11,CCCOc1ccc(C(=O)NCC2(N(C)C)CCCCC2)cc1,inactive: 7.32%
12,O=c1[nH]c2ccccc2n1C1CCN(C(c2cc3ccccc3o2)c2nnnn2C2CCCC2)CC1 (stereo not drawn),inactive: -21%
13,CCOc1ncccc1C(=O)NCC1(N2CCOCC2)CCCCC1,inactive: 14.2%
14,CN1CCC(Nc2ccc(F)c(Cl)c2)CC1,inactive: -12.5%
15,CN1CCC(Nc2ccc(Cl)cc2)CC1,inactive: -18.2%
16,COc1cccc(C(=O)N(c2cc(C)cc(C)c2)C2CCN(C(=O)OC(C)(C)C)CC2)c1,inactive: 7.93%
17,COc1cc(OC)cc(C(=O)NCC2(N3CCOCC3)CCCCC2)c1,inactive: -22.9%
18,COc1cccc(C(c2nnnn2C2CCCC2)N2CCC(n3c(=O)[nH]c4ccccc43)CC2)c1OC (stereo not drawn),inactive: -26.1%
19,CSc1ccccc1C(=O)NCC1(N2CCCCC2)CCCCC1,inactive: -8.65%
20,Cc1cccc(NC2(C#N)CCN(Cc3ccccc3)CC2)c1,inactive: -13.9%
21,COc1ccc(C(=O)NCC2(N3CCCCC3)CCCCC2)cc1,inactive: -1.5%
22,CCC(c1nnnn1C1CCCC1)N1CCC(n2c(=O)[nH]c3ccccc32)CC1 (stereo not drawn),inactive: -19.9%
23,CC(C)(C)OC(=O)N1CCC(N(C(=O)c2ccccc2)c2ccc(F)cc2)CC1,inactive: -11.1%
24,COc1ccc(C(=O)NCC2(N3CCCCC3)CCCCC2)c(OC)c1OC,inactive: 3.35%
25,O=C(NCC1(N2CCCCC2)CCCCC1)c1ccc(=O)[nH]c1,inactive: -4.68%
26,CCCCn1nnnc1C(c1cccs1)N1CCC(n2c(=O)[nH]c3ccccc32)CC1 (stereo not drawn),inactive: -6.88%

row,Structure (SMILES),inhibition
1,O=C(NCC1(N2CCCCC2)CCCCC1)c1cccs1,inactive: -10.7%
2,CCCCn1nnnc1C(CC)N1CCC(n2c(=O)[nH]c3ccccc32)CC1 (stereo not drawn),inactive: -13.8%
3,O=c1[nH]c2ccccc2n1C1CCN(C(c2cc3ccccc3o2)c2nnnn2C2CCCCC2)CC1 (stereo not drawn),inactive: -18.3%
4,O=C(NCC1(N2CCCCC2)CCCCC1)c1ccc(Cl)s1,inactive: 0.03%
5,N#CC1(Nc2ccccc2)CCN(Cc2ccccc2)CC1,inactive: -11.2%
6,COc1ccc(Cl)cc1C(=O)NCC1(N2CCOCC2)CCCCC1,inactive: -5.43%
7,CCOC(=O)N1CCC(Nc2ccc(OC)cc2)CC1,inactive: -3.86%
8,CCCCn1nnnc1C(c1ccc(OC)cc1)N1CCC(n2c(=O)[nH]c3ccccc32)CC1 (stereo not drawn),inactive: 24.2%
9,O=c1[nH]c2ccccc2n1C1CCN(C(c2ccccc2OC(F)(F)F)c2nnnn2C2CCCCC2)CC1 (stereo not drawn),inactive: -29.3%
10,O=C(NCC1(N2CCCCC2)CCCCC1)c1ccc(Cl)nc1,inactive: -9.52%
11,Cc1cc(C)cc(N(C(=O)c2ccccc2)C2CCN(C(=O)OC(C)(C)C)CC2)c1,inactive: -14.3%
12,O=C(NCC1(N2CCOCC2)CCCCC1)c1cc2ccccc2o1,inactive: -13.2%
13,O=C(NCC1(N2CCCCC2)CCCCC1)c1ccc(F)cc1,inactive: -11.4%
14,CCCCOc1ccc(C(=O)NCC2(N3CCOCC3)CCCCC2)cc1,inactive: -3.29%
15,CCCCn1nnnc1C(c1cc2ccccc2o1)N1CCC(n2c(=O)[nH]c3ccccc32)CC1 (stereo not drawn),inactive: -24.5%
16,O=P1(N(CCCl)CCCl)SCCCS1,inactive: -0.43%
17,CCOC(=O)N1CCC(Nc2ccc(F)cc2)CC1,inactive: -6.88%
18,COc1ccc(NC2CCN(CCc3ccccc3)CC2)c(OC)c1,inactive: 10.7%
19,CC(C)(C)n1nnnc1C(c1ccccc1)N1CCC(n2c(=O)[nH]c3ccccc32)CC1 (stereo not drawn),inactive: 1.95%
20,O=C1CCN(Cc2ccccc2)CC1,inactive: -7.5%
21,CCOc1ccc(C)cc1CN(CCCl)CCCl,inactive: 8.58%
22,COc1cc(C(=O)NCC2(N(C)C)CCCCC2)ccc1OC(F)F,inactive: -4%
23,CCOC(=O)N1CCC(Nc2cccc(C)c2)CC1,inactive: -19.5%
24,O=c1[nH]c2ccccc2n1C1CCN(C(c2cccc3ccccc23)c2nnnn2C2CCCC2)CC1 (stereo not drawn),inactive: -31.3%
25,O=c1[nH]c2ccccc2n1C1CCN(C(c2ccccc2)c2nnnn2C2CCCCC2)CC1 (stereo not drawn),inactive: -21.4%
26,CCN1CCC(Nc2ccc(Cl)cc2)CC1,inactive: 4.18%

row,Structure (SMILES),inhibition
1,N#CC1(Nc2ccccc2)CCN(CCc2ccccc2)CC1,inactive: -15%
2,O=c1[nH]c2ccccc2n1C1CCN(C(c2ccccc2OC(F)(F)F)c2nnnn2C2CCCC2)CC1 (stereo not drawn),inactive: -14%
3,O=C(NCC1(N2CCCCC2)CCCCC1)c1cccc([N+](=O)[O-])c1,inactive: -1.78%
4,CSc1ccc(C(=O)NCC2(N3CCOCC3)CCCCC2)cc1,inactive: -6.27%
5,CC(C)(C)n1nnnc1C(c1ccccc1OC(F)(F)F)N1CCC(n2c(=O)[nH]c3ccccc32)CC1 (stereo not drawn),inactive: -36.1%
6,O=C(NCC1(N2CCCCC2)CCCCC1)c1ccc(OC(F)F)cc1,inactive: -19.2%
7,O=C(NCC1(N2CCOCC2)CCCCC1)c1cc(=O)[nH]c2ccccc12,inactive: -4.43%
8,COc1cc(C(=O)NCC2(N3CCCCC3)CCCCC2)ccc1OC(F)F,inactive: 8.92%
9,CCCCn1nnnc1C(c1cccc2ccccc12)N1CCC(n2c(=O)[nH]c3ccccc32)CC1 (stereo not drawn),inactive: -24.6%
10,CC(C)c1ccc(C(=O)NCC2(N3CCOCC3)CCCCC2)cc1,inactive: -6.55%
11,COc1ccc(NC2CCN(C(=O)OC(C)(C)C)CC2)cc1,inactive: 1.55%
12,O=C(NCC1(N2CCCCC2)CCCCC1)c1cccc(C(F)(F)F)c1,inactive: -0.99%
13,COc1cc(OC)c(C(=O)NCC2(N(C)C)CCCCC2)cc1OC,inactive: -11.4%
14,O=C(NCC1(N2CCOCC2)CCCCC1)c1cc(F)c(F)cc1Cl,inactive: -5.89%
15,CCC(c1nnnn1C(C)(C)C)N1CCC(n2c(=O)[nH]c3ccccc32)CC1 (stereo not drawn),inactive: -24%
16,CCCCn1nnnc1C(c1ccnc2ccccc12)N1CCC(n2c(=O)[nH]c3ccccc32)CC1 (stereo not drawn),inactive: 19.7%
17,CCCCn1nnnc1C(c1ccccc1OC(F)(F)F)N1CCC(n2c(=O)[nH]c3ccccc32)CC1 (stereo not drawn),inactive: -23.6%
18,CC(C)c1ccc(NC2CCN(C(=O)OC(C)(C)C)CC2)cc1,inactive: -10%
19,COc1ccc(CN(CCCl)CCCl)cc1Cl,inactive: -2.57%
20,CN(C)c1cccc(C(=O)NCC2(N3CCCCC3)CCCCC2)c1,inactive: -0.51%
21,COc1ccc(C(c2nnnn2C2CCCC2)N2CCC(n3c(=O)[nH]c4ccccc43)CC2)cc1 (stereo not drawn),inactive: 2.39%
22,Cc1ccc(C(=O)NCC2(N(C)C)CCCCC2)o1,inactive: -4.61%
23,CCCOc1ccc(C(=O)NCC2(N(C)C)CCCCC2)cc1OC,inactive: -1.54%
24,O=C(NCC1(N2CCCCC2)CCCCC1)c1cncc(Br)c1,inactive: 0.86%
25,CN1CCC(Nc2cccc(F)c2)CC1,inactive: -2.66%
